# Antibody variant affinities, Ab-14 heavy chain, assay B

Source: Li et al. 2023 (doi:10.1038/s41467-023-39022-2), MIT Lincoln Laboratory and A-Alpha Bio; data file from the FLAb repository.

Antigen: PDVDLGDISGINAS, a 14-residue peptide of the SARS-CoV-2 spike HR2 region.

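Phage display of a naive human antibody library on the peptide gave the parent. Designed CDR sequences, proposed from the first random library and measured here. Their group label is 14H_GP_HC (GP: Gaussian process model; HC: hill climbing; a sequence that several methods proposed may carry one label only). The assay is AlphaSeq: two haploid yeast populations carry antibody and antigen on their surface. Binding brings cells together so that they mate, and sequencing counts the barcode pairs among the diploids. A regression on co-assayed BCL2-family reference pairs converts the normalised counts of each replicate to an apparent Kd. There are six technical replicates.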

Parent: Ab-14, a human scFv built as VH, a 15-residue (Gly4Ser)3 linker, VL. Only the CDRs of the heavy chain vary.
VH: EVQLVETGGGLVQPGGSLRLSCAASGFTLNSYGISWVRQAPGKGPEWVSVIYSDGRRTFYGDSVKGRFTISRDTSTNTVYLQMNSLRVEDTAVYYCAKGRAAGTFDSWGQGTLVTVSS
VL: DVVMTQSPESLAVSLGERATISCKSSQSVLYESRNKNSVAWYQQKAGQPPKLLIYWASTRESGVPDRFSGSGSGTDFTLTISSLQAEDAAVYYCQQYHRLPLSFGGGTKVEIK

Each variant is given by its three heavy chain CDRs, as the data file delimits them; those of the parent are GFTLNSYGIS, VIYSDGRRTFYGDSVK, GRAAGTFDS.
Scale: log10 of Kd in nM, estimated from mating counts; low values are strong binders.
The mean shown is taken over the replicates in which the pair was detected.
"n.d." marks a missing value. The strain was present, yet no cells mated with the target were sequenced in that replicate, which points to weak or no binding.
The authors' rule: three or more of the six replicates give a measured affinity, fewer mean a poor binder.
The parent sequence was in this pool as ten entries: three were never detected, three once, and four in most replicates, with averages from 0.34 to 2.37.
Background: pairings of all heavy chain designs with three empty control strains gave a value in 1% of cases (median 2.08, 5th percentile 0.84). Values in that range, when seen in few replicates, are hard to tell from nonspecific mating. Also given: how often the same scFv was detected with the empty control strains, with their mean in brackets.
Values of this round are not directly comparable with the first-round values of the same sequences.

CDR-H1,CDR-H2,CDR-H3,"log10 Kd, replicates","log10 Kd (nM), mean",signal with controls
CFTLNSYGIS,VIYSDGRRTFYADSVK,GQLAGTFDS,0.42 / 0.24 / 0.58 / 0.63 / -0.20 / 0.35,0.34,1 of 18 (1.72)
GFTLNEYGIS,VIYSDGRRTFYGDSVK,GRAAGTFRL,n.d. / n.d. / n.d. / n.d. / n.d. / n.d.,n.d.,1 of 18 (-0.40)
GFQLNEYGIS,VIYSDGRRTFYTDSVK,GRAAGTFDS,0.91 / 0.00 / 0.79 / 1.09 / 0.44 / 0.86,0.68,0 of 18
GFTLNEYGIS,VIYSDGRRTFYSDSVK,GRAAGCFTS,0.65 / 0.50 / 0.68 / 1.82 / 0.58 / 0.99,0.87,1 of 18 (2.51)
GETLNSYGIS,VIYADGRRTFYADSVK,GRAAGTFDS,-0.66 / n.d. / n.d. / -0.77 / 0.34 / -1.42,-0.63,0 of 18
GFTLNEYGIS,VIYSDGRRTFYGDSVK,GRCAGTFDD,n.d. / n.d. / n.d. / n.d. / n.d. / n.d.,n.d.,0 of 18
GFTLNEYGIS,VIYSDGRRTFYTDSVK,GRTAGTFDA,-0.01 / -0.28 / -0.34 / -0.42 / -0.15 / -0.21,-0.23,1 of 18 (1.38)
GFQLNEYGIS,VIYSDGRRTFYGDSVK,GRAAGTFDV,1.31 / 0.04 / 0.19 / 0.83 / 0.34 / 0.19,0.48,0 of 18
GFTLNEYGIS,VIYSDGRRTFYIDSVK,GRAAGTFTS,n.d. / n.d. / n.d. / n.d. / n.d. / n.d.,n.d.,0 of 18
GFWLNEYGIS,VIYSDGRRTFYEDDVK,GRTAGTFDS,n.d. / -0.88 / n.d. / -0.45 / 0.01 / n.d.,-0.44,0 of 18
GFTLDSYGIS,VIYSDGRRTFYGDSVK,GRAAGTFDR,n.d. / 1.48 / 1.16 / n.d. / n.d. / 1.23,1.29,0 of 18
GFTLNEYGIS,VIYSDGRRTFYTDSVK,GHEAGTFDS,0.77 / n.d. / n.d. / 0.07 / 1.55 / n.d.,0.80,0 of 18
GFTLNDYGIS,VIYSDGRRTFYHDSVK,GRAAGTFES,2.32 / 2.52 / 1.57 / 1.32 / 1.86 / 1.88,1.91,1 of 18 (2.95)
GFTLNDYGIS,VIYSDGRRTFYSDSVK,GQDAGTFDS,1.59 / 2.74 / 2.50 / 1.92 / 0.67 / 1.67,1.85,1 of 18 (1.83)
GFQLNEYGIS,VIYSDGRRTFYGDSVK,GRHAGTFIS,n.d. / n.d. / n.d. / n.d. / n.d. / n.d.,n.d.,0 of 18
GFTLNSYGIS,VIYSDGMRTFYSDSVK,GFTAGTFDS,0.24 / 0.10 / 0.62 / -0.06 / 0.48 / 0.58,0.33,0 of 18
GFWLNDYGIS,VIYSDGRRTFYGDSVK,GRMAGTFDS,1.00 / 1.27 / 1.51 / 1.50 / 1.24 / 1.42,1.33,0 of 18
GFTLNDYGIS,VIYSDGRRTFYSDSVK,GRAGGTFDS,0.28 / 0.59 / 0.20 / 0.23 / 0.20 / 0.37,0.31,1 of 18 (2.23)
GFPLNDYGIS,VIYSDGRRTFYGDSVK,GKAAGTFDS,0.75 / 0.58 / 1.15 / n.d. / 0.82 / 0.66,0.79,0 of 18
GFTLNDYGIS,VIYSDGRRTFYIDSVK,GRIAGTFDS,1.72 / 0.71 / n.d. / 0.91 / 0.77 / 0.77,0.98,0 of 18
GFSLNEYGIS,VIYSDGRRTFYCDSVK,GPAAGTFDR,n.d. / 0.88 / 2.49 / 1.22 / 2.77 / 1.58,1.79,0 of 18
GFTLNSYGIS,VIYSDGRRTFYDDSVK,GQTAGKFDS,n.d. / n.d. / n.d. / n.d. / n.d. / n.d.,n.d.,0 of 18
GFPLNSYGIS,VIYADGRRTFYGDSVK,GGAAGTFDS,0.47 / 0.62 / 0.26 / 0.57 / 0.33 / 0.86,0.52,1 of 18 (1.97)
GFELNEYGIS,VIYADGRRTFYGDSVK,GRAAGTFDS,-0.19 / -0.45 / -0.46 / -0.40 / -0.53 / -0.19,-0.37,0 of 18
GFELNDYGIS,VIYSDGRRTHYIDSVK,GRAAGTFDS,-0.67 / -0.96 / 0.03 / -1.11 / -0.19 / -1.16,-0.68,0 of 18
GFTLDSYGIS,VIYADGRRTFYGDSVK,GRLAGTFDS,-0.15 / -0.24 / -0.13 / -0.18 / -0.42 / 0.02,-0.18,0 of 18
GFTLNEYGIS,VIYSDGRRTFYSDSVK,GRAAGTFNS,0.59 / 1.17 / 1.17 / 1.16 / 0.42 / 1.50,1.00,0 of 18
GFTLNQYGIS,VIYSDGRRTFYSDSVK,GREAGTFDT,-0.34 / -0.37 / -0.20 / -0.24 / -0.17 / -0.53,-0.31,0 of 18
GFTLNSYGIS,VIYADGRRTFYGDSVK,GTAAGTFKF,n.d. / n.d. / 1.95 / n.d. / n.d. / 1.75,1.85,0 of 18
GFTLNEYGIS,VIYSDGTRTFYSDSVK,GRTAGTFDS,0.46 / -0.13 / -0.74 / -0.28 / 0.56 / -0.16,-0.05,0 of 18
GFQLNEYGIS,VIYSDGRRTFYDDSVK,GRHAGTFDS,-0.17 / 0.47 / -0.29 / -0.06 / 0.71 / 0.07,0.12,0 of 18
GFTLQSYGIS,VIYADGRRTFYGDSVK,GQAAGTFDS,0.05 / n.d. / 0.42 / 0.52 / n.d. / 1.56,0.64,0 of 18
GFTLNEYGIS,VIYSDGRRTFYGDSVK,GRFAGTFDE,0.87 / 0.25 / 0.45 / 0.65 / 0.69 / 0.76,0.61,0 of 18
GFKLNSYGIS,VIYSDGRRTFYDDQVK,GQLAGTFDS,n.d. / 1.45 / n.d. / n.d. / 2.03 / n.d.,1.74,0 of 18
GFTLNEYGIS,VIYSDGRRTFYSDSVK,GHAAGTFDL,-0.13 / -0.29 / -0.12 / -0.37 / 0.01 / -0.21,-0.19,0 of 18
GFELNSYGIS,VIYSDGRRTFYSDSVK,GVAGGTFDS,0.87 / 0.87 / 1.04 / 1.04 / 0.73 / 1.00,0.93,0 of 18